This passage reports IC50 results from patent US5830909A, “Angiotensin (AII) antagonists as inhibitors of the growth of adipose tissue” (American Cyanamid Company, priority 1996, dated 1998).

Chains of the proteins cited; added tags and fusions are not shown. Lines headed by an entry give the natural chain unless they say otherwise; changes in a name come on top.
UniProt P25095, whole entry: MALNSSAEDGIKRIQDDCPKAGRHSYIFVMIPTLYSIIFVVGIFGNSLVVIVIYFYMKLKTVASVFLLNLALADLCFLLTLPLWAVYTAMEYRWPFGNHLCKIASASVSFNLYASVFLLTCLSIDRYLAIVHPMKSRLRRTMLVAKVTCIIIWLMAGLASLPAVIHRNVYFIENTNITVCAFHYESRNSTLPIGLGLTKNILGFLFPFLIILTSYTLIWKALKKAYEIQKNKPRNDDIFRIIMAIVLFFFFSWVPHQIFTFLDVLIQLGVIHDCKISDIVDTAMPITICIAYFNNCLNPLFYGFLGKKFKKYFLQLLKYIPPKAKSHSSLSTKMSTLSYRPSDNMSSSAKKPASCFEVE
UniProt P01019: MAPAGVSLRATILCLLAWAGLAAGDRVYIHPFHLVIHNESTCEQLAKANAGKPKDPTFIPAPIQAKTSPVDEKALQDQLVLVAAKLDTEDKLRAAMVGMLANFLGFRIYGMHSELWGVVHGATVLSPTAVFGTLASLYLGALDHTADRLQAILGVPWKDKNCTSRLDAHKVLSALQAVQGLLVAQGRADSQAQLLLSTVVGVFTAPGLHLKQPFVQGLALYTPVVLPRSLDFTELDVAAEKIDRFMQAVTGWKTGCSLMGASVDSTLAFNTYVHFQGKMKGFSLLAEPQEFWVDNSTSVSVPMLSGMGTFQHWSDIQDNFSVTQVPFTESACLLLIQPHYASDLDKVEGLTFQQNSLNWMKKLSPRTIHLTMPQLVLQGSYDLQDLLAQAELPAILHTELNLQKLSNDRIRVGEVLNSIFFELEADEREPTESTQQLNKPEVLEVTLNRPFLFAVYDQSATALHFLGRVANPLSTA

The target of assay [1] is T1, AII receptor (Rattus norvegicus, UniProt P25095).
T1 construct: adipose tissue from the epididymal and retroperitoneal depots is quickly excised; from tissue; host or cells: membranes of collagenase-isolated adipocytes from epididymal and retroperitoneal fat of male Sprague-Dawley rats
Kind of assay: Displacement of 125I[Sar,Ile]AII binding in rat epididymal fat cell membranes. As to conditions: 1 nM radioligand, 1-4 assays, read-out: Inhibitory Constants (IC50) for displacement of 125I[Sar,Ile]AII binding, Epididymal. The text has this: (§1) The experimental design involves determining the binding characteristics of adipocyte membranes harvested from two different anatomic sites at three different ages. Male Sprague-Dawley rats (Charles River Laboratories, Wilmington, Mass.) are used at 40, 70 and 100 days of age. Rats are killed by carbon dioxide inhalation on the morning of the experiment, and adipose tissue from the epididymal and retroperitoneal depots is quickly excised and placed in cold saline. The spermatic artery and vein are removed from the epididymal fat, and brown fat deposits are dissected away from the retroperitoneal depot. […] Protein content of the high speed pellet is determined, the resuspended protein is either assayed immediately or stored at -75° before binding assays are performed. […] Separation of bound from free radioactivity is achieved using any appropriate filtration apparatus. […] The filters are placed in tubes, and radioactivity measured in a gamma scintillation counter programmed to correct for the half-life of the isotope. Using this experimental protocol, both the affinity (KD) and number of binding sites (Bmax) for angiotensin II on the adipocyte membrane can be calculated. The relative affinities of different anatomically distinct adipocyte membranes for a variety of peptide and nonpeptide antagonists can also be determined. […]
In general terms: Displacement assays read how much labelled ligand stays bound in the presence of the test substance.

Assay [2] has as its target T1, AII receptor. Kind of assay: Displacement of 125I[Sar,Ile]AII binding in rat retroperitoneal fat cell membranes. As to conditions: 1 nM radioligand, 1-4 assays, read-out: Inhibitory Constants (IC50) for displacement of 125I[Sar,Ile]AII binding, Retroperitoneal.
Text: as §1

One may read the IC50 as the concentration that gives 50% inhibition. As to “AIII: peptide ligand listed in Table 5 (RVYIHPF; Angiotensin-3; UniProt P01019 26-32, looked up) [reference compound]”, the IC50 is 22.3 nM in assay [1] and 18.5 nM in assay [2].
